Earlier results as cited in patent publication US20040120985A1, “Food product for increasing the cognitive functional capacity” (priority 2001, published 2004).

Details: oral administration, radioactively labeled

Substance: phosphatidyl serine
- time after which detectable in the blood: 30 min
